# Test results reported in paper PMC7443318 (Journal of medicinal chemistry, 2020).
# Experiments:
# [1] = target: T1, mA3AR (Mus musculus, UniProt Q61618)
# T1 sequence (Q61618 1-319): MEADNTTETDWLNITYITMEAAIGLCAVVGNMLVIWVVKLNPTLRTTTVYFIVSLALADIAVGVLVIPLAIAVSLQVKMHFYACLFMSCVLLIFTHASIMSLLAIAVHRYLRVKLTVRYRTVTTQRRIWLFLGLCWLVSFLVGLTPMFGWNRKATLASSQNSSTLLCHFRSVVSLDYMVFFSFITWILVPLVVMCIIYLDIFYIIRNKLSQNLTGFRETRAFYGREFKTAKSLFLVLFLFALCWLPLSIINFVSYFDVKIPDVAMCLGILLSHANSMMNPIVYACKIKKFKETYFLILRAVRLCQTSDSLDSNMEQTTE
# [2] = target: T1, mA3AR; conditions: HEK-293 cells, compared to 38 (Cl-IB-MECA); cited from earlier work
Structure (SMILES),mA3AR selectivity [1] [fold],"Emax, inhibition of forskolin-stimulated cyclic AMP production [2] [%]"
"COc1cc(CCNc2nc(C#Cc3ccc(Br)s3)nc3c2ncn3[C@H]2[C@H](O)[C@H](O)[C@@H]3C[C@@H]32)ccc1O [Compound 30, (1R,2R,3S,4R,5S)-4-(2-((5-Bromothiophen-2-yl)ethynyl)-6-((4-hydroxy-3-methoxyphenethyl)amino)-9H-purin-9-yl)bicyclo[3.1.0]hexane-2,3-diol]",> 1000,
O[C@@H]1[C@H](O)[C@@H]2C[C@@H]2[C@H]1n1cnc2c(NCCc3ccccc3)nc(C#Cc3ccccc3)nc21 [Compound 8],,14
